Measurements published in patent US7741479B2, “Urea inhibitors of MAP kinases” (Locus Pharmaceuticals, Inc., priority 2004, dated 2010).

Sequences of proteins named here, by UniProt entry; tags and fusion partners are left off.
UniProt Q16539, whole entry: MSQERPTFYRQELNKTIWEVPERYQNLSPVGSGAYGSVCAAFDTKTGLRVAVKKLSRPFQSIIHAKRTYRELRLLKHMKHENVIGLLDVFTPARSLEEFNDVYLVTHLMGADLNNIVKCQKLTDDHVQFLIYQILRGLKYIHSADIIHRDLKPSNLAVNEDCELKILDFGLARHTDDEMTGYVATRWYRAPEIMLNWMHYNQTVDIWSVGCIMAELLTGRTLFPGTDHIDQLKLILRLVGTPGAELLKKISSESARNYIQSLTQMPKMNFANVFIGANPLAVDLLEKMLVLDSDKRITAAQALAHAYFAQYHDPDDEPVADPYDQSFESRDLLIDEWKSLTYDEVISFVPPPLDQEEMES

Biological target: T1, p38 (Homo sapiens, UniProt Q16539)
T1 construct: made in house
Experiment: Protein Kinase Assay (33P incorporation from γ-[33P]ATP into GST-ATF-2 substrate)
Format: biochemical
Conditions: compound at 10 μM
Description: Human non-activated p38 kinase (MW=43 kDa) was purified according to the protocol described herein. Chemicals were purchased from Calbiochem. Fluorescence characterizations were conducted using a Cary Eclipse (Varian Analytical Instruments, Walnut Creek, Calif.). Research-grade CM5 sensor chips and coupling reagents (N-ethyl-N′-dimethylaminopropylcarbodiimide (EDC) N-hydroxysuccinimide (NHS), and 1 M ethanolamine HCl, pH 8.5) were purchased from Biacore AB (Uppsala, Sweden). The biosensor analyses were conducted using a Biacore 3000 SPR instrument. The kinetic analyses were carried on a Molecular Devices spectrophotometer (Molecular Devices Corporation, CA, USA).
Protein Kinase Assay. The protein kinase activity of p38 was determined by measuring the incorporation of ^33P from γ-[^33P]ATP into the GST-ATF-2 substrate, amino acids 19-96 (Upstate, NY USA). […] Compounds were preincubated with 10 nM p38 for 20 min at 30° C.; the reactions were initiated by the addition of GST-ATF2 and ATP and incubated for 70 min at 30° C. before being stopped by the addition of 10 μL of 600 mM phosphoric acid. The phosphorylated substrate was captured on phosphocellulose 96-well plate (Millipore MAPHNOB 10), washed with 100 mM phosphoric acid, and counted in a BeckmenCoulter LS6500 liquid scintillation counter.

inhibition at 10 µM: 76 to 100%
Structure (SMILES): CC(C)(C)c1cc(C(=O)N2CCNC(=O)CC2)c(NC(=O)Nc2cccc3ccccc23)s1 [Example 36, 1-[5-tert-butyl-3-(5-oxo[1,4]diazepane-1-carbonyl)thiophen-2-yl]-3-naphthalen-1-yl-urea]
